Our source for the EC50 values is BindingDB's records for doi:10.1021/acsmedchemlett.9b00621 (Gilead Sciences, 2020).

This test can be described thus: Inhibition of SYK-mediated alpha CD3/alpha CD28-stimulated human T lymphocytes proliferation measured after 90 hrs by EdU incorporation assay.

By EC50 is commonly meant the concentration that produces a half-maximal response. `Nc1cncc(-c2cn3ccnc3c(Nc3ccc(N4CCN(C5COC5)CC4)cc3)n2)n1` [US9504684, Ex.-2] registered an EC50 of 1300 nM.
